System: Jeko cells engrafted in SCID mice
Assay: Preclinical model of human MCL in SCID mice, survival
Type: in vivo, mouse
Conditions: n=10/group, from day 15; FTY720 5 mg/kg i.p. daily 2 weeks; antibodies 15 mg/kg i.p. every three days
Protocol: FIG. 5. Evaluation of in vivo therapeutic activity of FTY720 and milatuzumab in the preclinical MCL model. SCID mice were injected i.v. with 40×10^6 JeKo cells and observed daily for signs of tumor burden. The median survival for FTY720 and milatuzumab treated mice (N=10) was 36 days (95% CI:31-36), compared to 31 days for the FTY720 treated mice (95% CI:28-32) and 33.5 days for the milatuzumab treated mice (95% CI:23-34).
To examine the in vivo activity of FTY720 and milatuzumab, our previously described preclinical model of human MCL using the SCID mouse was used (Liu et al. 2010, Clin Cancer Res 16:3182-92). Six to eight-week old female SCID mice (cb17 scid/scid) were purchased from Taconic Farms (Hudson, N.Y.) and maintained in pathogen-free, isolation cages. All animals were depleted of murine NK cells with intra-peritoneal (i.p.) injections of 0.2 mg of rat anti-mouse interleukin-2 receptor β monoclonal antibody (TMβ1) 1 day prior to engraftment with human tumor cell lines and then every week. […] Animals were monitored daily for signs of tumor burden, including hind limb paralysis, respiratory distress, weight loss, ruffled coat, and distended abdomen. Body weight was measured weekly for the first 3 weeks and then daily. […]
We next evaluated the in vivo effect of FTY720 in combination with milatuzumab in a preclinical model of human MCL. […]

Substance “trastuzumab: anti-ErbB2 antibody used as control” has a median survival of 27 days.
